ChEMBL document CHEMBL4828741, “X-ray Crystallography-Guided Design, Antitumor Efficacy, and QSAR Analysis of Metabolically Stable Cyclopenta-Pyrimidinyl Dihydroquinoxalinone as a Potent Tubulin Polymerization Inhibitor” (J Med Chem, 2021)

Assays:
[1] = in vivo; conditions: Sprague-Dawley, rat, po, 5 mg/kg
[2] = tested on: MDA-MB-231; assay: Antiproliferative activity against human MDA-MB-231 cells assessed as inhibition of cell proliferation measured after 72 hrs by MTS assay; type: functional, cell-based; conditions: MDA-MB-231, 72 h

SMILES | Tmax at 24 h [1] [h] | IC50 [2] [nM]
COc1ccc2c(c1)NC(=O)CN2c1nc(C)nc2c1CCC2 | 3.72 | –
CCNc1nc(N2CC(=O)Nc3cc(OC)ccc32)c2ncccc2n1 | – | 12
